Test results published in ChEMBL document CHEMBL1145512, “Three classes of glucocerebrosidase inhibitors identified by quantitative high-throughput screening are chaperone leads for Gaucher disease” (Proc Natl Acad Sci U S A, 2007).

Key:
[1] = target: T1, Lysosomal acid glucosylceramidase (Homo sapiens, UniProt P04062); assay: Inhibition of recombinant wild-type glucocerebrosidase
T1 sequence (P04062 whole entry): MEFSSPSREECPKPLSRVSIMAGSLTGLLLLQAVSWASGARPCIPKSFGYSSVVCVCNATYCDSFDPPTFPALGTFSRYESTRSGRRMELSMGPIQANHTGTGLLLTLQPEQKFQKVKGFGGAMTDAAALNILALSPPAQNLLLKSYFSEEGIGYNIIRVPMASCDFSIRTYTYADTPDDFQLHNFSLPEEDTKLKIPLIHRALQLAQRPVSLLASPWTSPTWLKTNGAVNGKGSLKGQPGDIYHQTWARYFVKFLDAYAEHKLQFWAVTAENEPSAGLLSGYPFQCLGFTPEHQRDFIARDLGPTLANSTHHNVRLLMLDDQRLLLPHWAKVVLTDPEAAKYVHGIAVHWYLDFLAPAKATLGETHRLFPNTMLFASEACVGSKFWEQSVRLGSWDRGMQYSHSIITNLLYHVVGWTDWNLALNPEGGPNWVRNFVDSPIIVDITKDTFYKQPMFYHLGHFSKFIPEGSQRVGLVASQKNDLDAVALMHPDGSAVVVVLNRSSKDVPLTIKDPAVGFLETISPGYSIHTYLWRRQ

[2] = target: T1, Lysosomal acid glucosylceramidase; assay: Effect on recombinant wild-type glucocerebrosidase

Row | Compound | IC50 [1] [nM] | Ki [1] [nM] | AC50 [2] [nM]
1 | Cc1cc(N2CCOCC2)nc2ccc(NC(=O)C3CCCCC3)cc12 | 31 | 21 | 
2 | CCc1nnc(NC(=O)c2ccc(NS(=O)(=O)c3ccccc3)cc2)s1 | 103 | 52 | 70
3 | COc1ccc(Cl)cc1Nc1nc(NCCO)nc(N2CCCC2)n1 | 430 | 320 | 870
